Sequences of proteins named here, by UniProt entry; tags and fusion partners are left off. Residues count along the entry.
UniProt Q14416, 19-872 limits assumed: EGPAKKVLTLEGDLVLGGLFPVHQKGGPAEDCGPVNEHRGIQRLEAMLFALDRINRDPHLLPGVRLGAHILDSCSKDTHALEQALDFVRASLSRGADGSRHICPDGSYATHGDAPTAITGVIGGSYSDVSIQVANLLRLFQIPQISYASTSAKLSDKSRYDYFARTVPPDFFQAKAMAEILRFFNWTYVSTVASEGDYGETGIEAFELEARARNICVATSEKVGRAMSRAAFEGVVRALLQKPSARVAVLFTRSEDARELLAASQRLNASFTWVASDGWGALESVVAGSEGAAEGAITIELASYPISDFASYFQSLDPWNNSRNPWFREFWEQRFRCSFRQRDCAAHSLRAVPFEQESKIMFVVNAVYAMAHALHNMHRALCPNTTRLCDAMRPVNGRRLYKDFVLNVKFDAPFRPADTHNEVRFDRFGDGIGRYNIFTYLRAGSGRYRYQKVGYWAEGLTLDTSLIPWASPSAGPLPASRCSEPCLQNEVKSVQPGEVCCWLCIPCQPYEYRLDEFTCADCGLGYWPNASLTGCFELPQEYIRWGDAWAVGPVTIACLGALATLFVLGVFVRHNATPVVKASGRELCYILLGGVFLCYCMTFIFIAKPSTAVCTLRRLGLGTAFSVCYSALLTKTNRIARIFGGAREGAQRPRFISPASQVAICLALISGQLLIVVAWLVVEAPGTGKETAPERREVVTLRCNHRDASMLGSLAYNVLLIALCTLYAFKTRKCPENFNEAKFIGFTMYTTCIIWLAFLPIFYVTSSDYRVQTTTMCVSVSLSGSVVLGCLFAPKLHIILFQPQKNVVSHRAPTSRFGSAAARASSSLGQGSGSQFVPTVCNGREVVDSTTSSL

In patent US20080312271A1, “AZABENZIMIDAZOLYL COMPOUNDS” (Pfizer Inc., priority 2006, published 2008):

Biological target: mGluR2 receptor (metabotropic glutamate receptor 2) (Homo sapiens, UniProt Q14416)
Test: mGluR2 Potentiator Screen, FLIPR, EC10-EC20 glutamate challenge
Assay type: cell-based
[1] = mGluR2 potentiator screen, FLIPR, EC10-EC20 glutamate challenge, tested form: HCl
[2] = mGluR2 potentiator screen, FLIPR, EC10-EC20 glutamate challenge

Compound	EC50 [1] [nM]	EC50 [2] [nM]	EC50 [nM]
C[C@@H]1CN(Cc2nc3cnccc3n2C)CC[C@@H]1c1ccc(Cl)cc1Cl (relative stereo) [233]	72.3		
Cc1cc(C(F)(F)F)ccc1[C@H]1CCN(Cc2nc3cnccc3n2C)C[C@H]1C (relative stereo)		192	
C[C@@H]1CN(Cc2nc3cnccc3n2C)CC[C@@H]1c1ccc(Cl)cc1Cl (relative stereo) [232]	731		
COc1cccc(F)c1C1CCN(Cc2nc3ncccc3n2C)CC1			756

Now from value to compound:

EC50 [1] [nM]	EC50 [2] [nM]	EC50 [nM]	Compound
		478	CO[C@@H]1CN(Cc2nc3ncccc3n2C)CC[C@@H]1c1ccc(C(F)(F)F)cc1 (relative stereo)
	24.9		Cn1c(CN2CCC(c3ccc(OC(F)(F)F)cc3F)CC2)nc2ncccc21

Read-outs that look alike come from different tables or passages of the source.
